What was measured:
anaesthetised dog [1] = test: emesis in the chloralose anaesthetised dog; details: s.c., escalating doses 3-3000 μg kg^−1
anaesthetised dog [2] = test: haemodynamics in the anaesthetised dog; type: in vivo

CCCNC1CCc2nc(N)sc2C1.Cl.Cl (stereo not drawn) [Pramipexole, 2-amino-4,5,6,7-tetrahydro-6-propylamino-benzthiazole-dihydrochloride]
dose at which emesis was observed (anaesthetised dog [1]): 0.03 mg/kg
cardiac output at the highest dose levels (anaesthetised dog [2]; dog, in vivo): approximately doubled
Geometric mean ED30 (fall in TPR) (anaesthetised dog [2]; male, beagle, dog, in vivo, 30 min): 8.9 μg/kg s.c.
effect on cardiac output and heart rate (anaesthetised dog [2]; s.c.): increases in cardiac output and heart rate
effect on mean blood pressure (anaesthetised dog [2]; s.c., doses up to 3000 μg/kg): clear effect on mean blood pressure
effect on total vascular resistance (TVR; TPR) (anaesthetised dog [2]; s.c., doses up to 3000 μg/kg): reduction in total vascular resistance
